Measurements reported in ChEMBL document CHEMBL4396878, “Mechanisms of Specific versus Nonspecific Interactions of Aggregation-Prone Inhibitors and Attenuators” (J Med Chem, 2019).

Key:
[1] = target: T1, Rap guanine nucleotide exchange factor 3 (Homo sapiens) (UniProt O95398); assay: Binding affinity to human EPAC1 cAMP binding domain (149 to 318 residues) at 50 to 200 uM using aggregate form of compound by dynamic light scattering analysis
T1 sequence (whole entry): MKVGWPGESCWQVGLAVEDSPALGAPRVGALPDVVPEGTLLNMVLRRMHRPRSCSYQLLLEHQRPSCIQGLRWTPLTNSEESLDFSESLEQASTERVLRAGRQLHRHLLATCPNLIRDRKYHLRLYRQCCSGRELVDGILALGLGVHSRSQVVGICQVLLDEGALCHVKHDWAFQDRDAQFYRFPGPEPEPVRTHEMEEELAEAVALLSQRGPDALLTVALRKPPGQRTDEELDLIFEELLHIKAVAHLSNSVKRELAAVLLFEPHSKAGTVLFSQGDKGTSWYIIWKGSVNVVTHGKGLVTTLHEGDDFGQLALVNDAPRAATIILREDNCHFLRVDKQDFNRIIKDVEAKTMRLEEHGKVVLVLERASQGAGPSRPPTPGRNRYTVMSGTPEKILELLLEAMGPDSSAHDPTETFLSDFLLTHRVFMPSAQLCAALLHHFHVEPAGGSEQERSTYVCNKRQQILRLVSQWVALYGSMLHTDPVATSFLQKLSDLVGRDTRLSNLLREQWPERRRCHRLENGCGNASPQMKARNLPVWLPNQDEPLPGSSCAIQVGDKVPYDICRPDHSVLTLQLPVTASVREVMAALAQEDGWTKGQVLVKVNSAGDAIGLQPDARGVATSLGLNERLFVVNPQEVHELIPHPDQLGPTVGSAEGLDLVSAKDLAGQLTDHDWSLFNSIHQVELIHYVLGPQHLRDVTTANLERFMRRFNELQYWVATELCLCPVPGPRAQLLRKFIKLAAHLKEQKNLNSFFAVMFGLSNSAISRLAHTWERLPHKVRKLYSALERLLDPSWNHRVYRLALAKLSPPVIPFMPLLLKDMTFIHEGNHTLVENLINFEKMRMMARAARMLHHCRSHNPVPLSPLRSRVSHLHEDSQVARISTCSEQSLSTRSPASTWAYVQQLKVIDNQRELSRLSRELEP

[2] = target: T1, Rap guanine nucleotide exchange factor 3 (Homo sapiens); assay: Binding affinity to human EPAC1 cAMP binding domain (149 to 318 residues) assessed as change in chemical shift at >150 uM using aggregate form of compound by [15N-1H]HSQC spectroscopic analysis
[3] = target: T1, Rap guanine nucleotide exchange factor 3 (Homo sapiens); assay: Binding affinity to human EPAC1 cAMP binding domain (149 to 318 residues) assessed as change in chemical shift at 100 uM in presence of triton-X 100 by 1H-1D NMR spectra analysis
[4] = target: T1, Rap guanine nucleotide exchange factor 3 (Homo sapiens); assay: Binding affinity to human EPAC1 cAMP binding domain (149 to 318 residues) at 300 uM in presence of triton X-100 by [15N-1H]HSQC spectroscopic analysis

## C[C@@H]1CCc2c(cc(Br)c(F)c2Br)N1C=O
[1]
  Activity: inactive
[2]
  Activity: inactive
[3]
  Activity: Active
[4]
  Activity: inactive

The source made the active and inactive calls. The rule behind the calls is not given here.
